Assay results published in patent US5919918.

How the values were obtained:
[1] = target: Human α-amylase (purchased from Sigma) (human)
[2] = target: α-amylase from guts of adult cockroaches (Blatta orientalis), crude extract (Blatta orientalis (cockroach))

SIα3 (Sorgum bicolor homologue, α-amylase inhibitor) (from UniProt P21925)
inhibition of α-amylase activity (method of Bernfeld, starch substrate) [1]: > 70% | inhibition of α-amylase activity (method of Bernfeld, starch substrate) [2]: > 70%
